# Laboratory results from PubChem BioAssay AID1385 (PCMD, 2008).
# The chains behind the UniProt entries cited, without tags or fusion partners.
# UniProt Q06609, whole entry, looked up: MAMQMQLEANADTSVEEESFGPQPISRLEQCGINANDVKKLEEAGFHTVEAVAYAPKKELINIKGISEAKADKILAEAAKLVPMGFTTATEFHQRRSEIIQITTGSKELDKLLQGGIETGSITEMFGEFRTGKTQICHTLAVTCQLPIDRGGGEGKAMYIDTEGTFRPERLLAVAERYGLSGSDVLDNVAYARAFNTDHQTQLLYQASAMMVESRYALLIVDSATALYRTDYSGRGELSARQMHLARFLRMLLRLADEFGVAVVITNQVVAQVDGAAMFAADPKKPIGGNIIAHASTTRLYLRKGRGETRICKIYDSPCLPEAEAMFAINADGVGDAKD
# Only a part is listed here, and it is no random draw. Activity calls are given as the source filed them.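 How the source made its calls: active means inhibition above 40% at the single screening dose; inactive means the rest.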
# Molecular target: DNA repair protein RAD51 homolog 1 (Homo sapiens) (UniProt Q06609)
# Assay: blockers of RAD51-mediated homologous recombination – biochemical, fluorescence, primary screen (AID 1385);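 further: 0% = DMSO control wells and 100% = blanks with heterologous ssDNA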
# Conditions: hRad51 DNA strand exchange, fluorescence dequenching; at 10 µM; active compounds read high
row,SMILES,inhibition
1,Cc1cc(SC(NC=O)C(Cl)(Cl)Cl)ncn1 (stereo unspecified),inactive: -4.57%
2,O=P(Nc1ccccn1)(c1cccc2ccccc12)c1cccc2ccccc12,inactive: 8.9%
3,O=[N+]([O-])c1ccc(Nc2ccc(Oc3ccc([N+](=O)[O-])cc3[N+](=O)[O-])cc2)c([N+](=O)[O-])c1,inactive: -7.79%
4,CCOC(=O)Nc1cccc([As](=O)(O)O)c1,inactive: -4.8%
5,Cc1cc(SC(NC(=O)c2ccccc2)C(Cl)(Cl)Cl)nc(C(C)C)n1 (stereo unspecified),inactive: -3.04%
6,CCOC(=O)Nc1ccc([As](=O)(O)O)c(O)c1,inactive: 2.05%
7,CCC(C)N(CC(C)C)C(=S)SC(NC(C)=O)C(Cl)(Cl)Cl (stereo unspecified),inactive: 2.56%
8,COP1(=S)c2c(C)nn(CCC#N)c2N=C(c2ccc(F)cc2)N1C (stereo unspecified),inactive: 6.32%
9,COc1ccc(N/C(=N/P(=O)(N2CCOCC2)N2CCOCC2)N2CCOCC2)cc1,inactive: 9.03%
10,COc1ccc2nc(NP(=O)(c3ccccc3)c3ccccc3)sc2c1,inactive: 2.3%
11,COc1cc(I)ccc1[As](=O)(O)O,inactive: -2.37%
12,O=C(OC1CN2CCC1CC2)C12CC3CC(CC(C3)C1)C2 (stereo unspecified),inactive: 3.03%
13,Cc1cc(=O)[nH]c(N[N+](=O)[O-])n1,inactive: 1.29%
14,CC(C)NC(=O)NP(=O)(Oc1ccccc1)Oc1ccccc1,inactive: -3.09%
15,CCN(CC)C(=S)SC(NC=O)C(Cl)(Cl)Cl (stereo unspecified),inactive: 16.1%
16,O=[N+]([O-])c1cc([N+](=O)[O-])c(-c2ccn[nH]2)s1,inactive: 19.3%
17,ClCCSc1nnc(-c2cccnc2)o1,inactive: 2.32%
18,Cc1ccc(OP(=O)(Nc2ccc([N+](=O)[O-])cn2)Oc2ccc(C)cc2)cc1,inactive: -2.14%
19,Cc1ccc2nc3c(c(C)c2c1)CC(C(Cl)Cl)S3 (stereo unspecified),inactive: 6.22%
20,O=[As](O)(c1ccc(O)cc1)c1ccccc1O,inactive: -13.2%
21,C[As](=O)(O)c1cccc(C(=O)O)c1,inactive: -19.5%
22,CN(C(=O)Cc1ccccc1)[C@@H]1CC[C@]2(CCCO2)C[C@H]1N1CCCC1,inactive: 6.57%
23,CCOP1(=S)c2c(C)nn(CCC#N)c2N=C(c2ccc(F)cc2)N1C (stereo unspecified),inactive: 0.19%
24,O=[N+]([O-])c1ccc2c(c1)nnn2O,inactive: -2.4%

row,SMILES,inhibition
1,CN(C(=O)Cc1ccc(Cl)c(Cl)c1)[C@H]1CC[C@@]2(CCCO2)C[C@@H]1N1CCCC1,inactive: -2.3%
2,NC(=O)Nc1ccc([As](=O)(O)O)cc1,inactive: -5.12%
3,O=C(O)COc1ccc([As](=O)(O)O)cc1[N+](=O)[O-],inactive: 12.5%
4,Nc1ccccc1[As](=O)(O)c1ccccc1,inactive: 13.3%
5,CCOP1(=S)c2c(C)nn(CCC#N)c2N=C(c2ccccc2F)N1C (stereo unspecified),inactive: -6.03%
6,O=P(Nc1nccs1)(Oc1ccccc1)Oc1ccccc1,inactive: 22%
7,O=P(Nc1nccs1)(c1ccccc1)c1nc2ccccc2s1 (stereo unspecified),inactive: -3.1%
8,CS(=O)(=O)c1cc([N+](=O)[O-])c2no[n+]([O-])c2c1,inactive: -2.88%
9,COc1cc(C2NCCC3(OCCO3)C2(C)C)cc(OC)c1OC (stereo unspecified),inactive: -5.76%
10,Nc1cccc2c([As](=O)(O)O)cccc12,inactive: -26.5%
11,Cc1ccc(NCCc2c([N+](=O)[O-])cc([N+](=O)[O-])cc2[N+](=O)[O-])cc1,inactive: 4.45%
12,CCCOP(=S)(Nc1nc(N)cc(=O)[nH]1)OCCC,inactive: 18.9%
13,Cc1cccc(OCC(=O)OC2CN3CCC2CC3)c1 (stereo unspecified),inactive: -0.83%
14,O=[As](O)(c1cccc(O)c1)c1cccc(O)c1,inactive: 11.8%
15,O=C(OC1CN2CCC1CC2)c1ccc(Cl)cc1 (stereo unspecified),inactive: 2.58%
16,O=[As](O)(O)c1cccnc1,inactive: 7.19%
17,COc1cc(C(=O)NCC2(N3CCOCC3)CCCCC2)cc(Cl)c1OC(C)C,inactive: -2.47%
18,CN(C(=O)Cc1ccc(Cl)c(Cl)c1)[C@@H]1CCCC[C@H]1N1CCCC1,inactive: -6.95%
19,O=[As](O)(c1ccccc1Br)c1ccccc1Br,inactive: 12.3%
20,CC1(CBr)Cn2c(nc3ccccc3c2=O)S1 (stereo unspecified),inactive: 0.88%
21,Clc1n[nH]nc1-c1nn[nH][15n]1,inactive: -5.13%
22,CC(C)(C)C(=O)NC(Sc1ncccn1)C(Cl)(Cl)Cl (stereo unspecified),inactive: 15.5%
23,O=P1(Nc2ccccn2)COc2ccccc2OC1,inactive: -11.4%
24,CCOP(=O)(Nc1ccc(C)cn1)OCC,inactive: -2.48%

row,SMILES,inhibition
1,CN(CCCl)Cc1cc(Cl)c(NC2=NCCN2)c(Cl)c1,inactive: -1.93%
2,Nc1cccc([As](=O)(O)c2ccccc2)c1,inactive: 6.39%
3,Cc1ccc(OCC(=O)OC2CN3CCC2CC3)cc1 (stereo unspecified),inactive: -2.84%
4,O=P1(Nc2ccc(Br)cn2)COc2ccccc2OC1,inactive: 7.04%
5,O=P1(Nc2ncccn2)COc2ccccc2OC1,inactive: 2.85%
6,O=C(/C=C/c1ccccc1)OC1CN2CCC1CC2 (stereo unspecified),inactive: -6.31%
7,Cc1nn(-c2ccccc2)c2c1P(=O)(N1CCOCC1)N(C)C(c1ccccc1)=N2 (stereo unspecified),inactive: -8.6%
8,CC1CCC(C(C)C)C(OP(=O)(Nc2ccccn2)c2ccccc2)C1 (stereo unspecified),inactive: -5.55%
9,O=C(OC1CN2CCC1CC2)c1cccc(Cl)c1 (stereo unspecified),inactive: 1.61%
10,Nc1ccc([As](=O)(O)c2ccc([N+](=O)[O-])cc2)cc1,inactive: -5.22%
11,O=[As](O)(c1ccccc1)c1ccc(O)cc1,inactive: 8.2%
12,O=[N+]([O-])c1ncn(CCn2cnc([N+](=O)[O-])n2)n1,inactive: 1.66%
13,O=P(Nc1nc2ccccc2s1)(c1ccccc1)c1ccccc1,inactive: 21.5%
14,C[C@H]1OP(=O)(Oc2ccccc2)[C@H](O)[C@H](O)[C@H]1N=[N+]=[N-] (stereo partly specified),inactive: 10.1%
15,O=P(Nc1ccccn1)(c1ccc(Br)cc1)c1ccc(Br)cc1,inactive: 10.4%
16,c1nnnn1CCn1cnnn1,inactive: -20%
17,O=P(Nc1nccs1)(c1ccccc1)c1ccccc1,inactive: -0.42%
18,CC(C)C(=O)NC(Sc1ccccc1)C(Cl)(Cl)Cl (stereo unspecified),inactive: 12.5%
19,CC(=O)Nc1ccc([As](=O)(O)O)c(O)c1,inactive: 21%
20,CC(=O)Nc1ccc(Oc2c([N+](=O)[O-])cc([N+](=O)[O-])cc2[N+](=O)[O-])cc1,inactive: -3.81%
21,C[C@H]1OP(=O)(Oc2ccccc2)C[C@@H]2O[C@@H]21 (stereo partly specified),inactive: 6.7%
22,C[C@@H]1C=CCP(=O)(Oc2ccccc2)O1 (stereo partly specified),inactive: -1.05%
23,CC(C)(C)C(=O)NC(Sc1ccccc1)C(Cl)(Cl)Cl (stereo unspecified),inactive: 20.5%
24,O=P1(Nc2nc3ccc(Cl)cc3s2)COc2ccccc2O1 (stereo unspecified),inactive: -4.62%

row,SMILES,inhibition
1,CCOc1ccc(C2=NCC(CBr)S2)cc1 (stereo unspecified),inactive: -36.7%
2,Cc1ccccc1OP(=O)(Nc1ccccn1)Oc1ccccc1C,inactive: 3.39%
3,O=c1c2cc([N+](=O)[O-])ccc2[nH]c2c([N+](=O)[O-])cc([N+](=O)[O-])cc12,inactive: -24.9%
4,CCC(=O)N1C2C3N(C(=O)CC)C1C1N(C(=O)CC)C(C(N1C(=O)CC)N3C(=O)CC)N2C(=O)CC,inactive: -9.58%
5,COC(=O)c1cc2c(s1)N=C(c1ccccc1)N(C)P2(=O)N1CCOCC1 (stereo unspecified),inactive: 17%
6,Cc1ccc(OP(=O)(Nc2ccccn2)Oc2ccc(C)cc2)cc1,inactive: -0.59%
7,c1ccc(-c2nn[nH]n2)c(-c2nn[nH]n2)c1,inactive: 1.52%
8,CCOC(=O)NC(Sc1ccccc1)C(Cl)(Cl)Cl (stereo unspecified),inactive: -12.2%
9,Cc1ccc(NP(=O)(Oc2cccc(C)c2)Oc2cccc(C)c2)nc1,inactive: -16.9%
10,O=C(NC1CCS(=O)(=O)C1)NP(=S)(Oc1ccccc1)Oc1ccccc1 (stereo unspecified),inactive: -2.78%
11,CCNC(=S)/N=C(\N)N[N+](=O)[O-],inactive: 15.2%
12,Nc1cccc2ccc([As](=O)(O)O)cc12,inactive: -4.57%
13,Cc1cc(SC(NC(=O)c2ccc(F)cc2)C(Cl)(Cl)Cl)ncn1 (stereo unspecified),inactive: -5.02%
14,CCOP(=O)(Nc1ccccc1)OCC,inactive: -5.95%
15,CN(C(=O)Cc1ccc(Cl)c(Cl)c1)[C@H]1CCCC[C@@H]1N1CCCC1,inactive: -2.39%
16,O=P(Nc1nc2ccc(Cl)cc2s1)(c1ccccc1)c1ccccc1,inactive: 14.3%
17,CC(=O)Nc1ccc([As](=O)(O)O)cc1,inactive: 8.7%
18,O=C(O)c1ccccc1[As](=O)(O)O,inactive: -18%
19,O=C(NC(Sc1ccncn1)C(Cl)(Cl)Cl)c1ccccc1 (stereo unspecified),inactive: 7.82%
20,Cc1c2non([O-])c-2c(C)[n+](=O)[n+]1[O-],inactive: -2.88%
21,Nc1cc(N)c2nonc2c1[N+](=O)[O-],inactive: 6.26%
22,CC(C)CC(=O)NC(Sc1ccc(Cl)cc1)C(Cl)(Cl)Cl (stereo unspecified),inactive: 3.31%
23,CN1CCCC(OC(=O)C(c2ccccc2)c2ccccc2)C1 (stereo unspecified),inactive: -8.57%
24,COc1ccccc1OP(=O)(Nc1ccc(C)cn1)Oc1ccccc1OC,inactive: -0.1%

row,SMILES,inhibition
1,Cc1ccc(OP(=O)(Nc2nccs2)Oc2ccc(C)cc2)cc1,inactive: -1.78%
2,Cc1ccc(N/C(=N/P(=O)(N2CCOCC2)N2CCOCC2)N2CCOCC2)cc1,inactive: -5.38%
3,NC(=O)c1cc([N+](=O)[O-])cc([N+](=O)[O-])c1N,inactive: -0.46%
4,CC1CCN(C(=O)Oc2c(Cl)cc(Cl)c3cccnc23)CC1,inactive: 2.45%
5,CC(C)=N/N=C(\N)N[N+](=O)[O-],inactive: -1.85%
6,CN(C)C(=O)OCCc1n(C)cc[n+]1C,inactive: -1.07%
7,CCN(/C(=N/P(=O)(N1CCOCC1)N1CCOCC1)N1CCOCC1)c1ccc(OC)cc1,inactive: -217%
8,Nc1ccc([As](=O)(O)c2ccc(N)cc2)cc1,inactive: 13.4%
9,C[N+]1=C2C=CC=CC=C2SC12C([N+](=O)[O-])=CC([N+](=O)[O-])=C[C-]2[N+](=O)[O-] (stereo unspecified),inactive: 17%
10,Cc1ccc(NP(=O)(Oc2ccccc2)Oc2ccccc2)nc1,inactive: -1.24%
11,O=[N+]([O-])c1cc([N+](=O)[O-])c(CCNc2ccccc2)c([N+](=O)[O-])c1,inactive: 14.9%
12,CCc1nc2c(n1)c1c(non1O)c1c2no[n+]1[O-],inactive: 2.98%
13,CC(=O)N1C2C3N(C(C)=O)C1C1N(C(C)=O)C(C(N1C(C)=O)N3C(C)=O)N2C(C)=O,inactive: -0.28%
14,O=[N+]([O-])c1cccc2n[nH]nc12,inactive: -6.92%
15,COc1ccc(C2=NCC(CBr)S2)cc1 (stereo unspecified),inactive: 5.17%
16,O=C(O)CNc1ccc([As](=O)(O)O)cc1,inactive: 10.2%
17,O=[N+]([O-])c1cccc(NC2=NCC(CBr)S2)c1 (stereo unspecified),inactive: -6.87%
18,O=[N+]([O-])c1ncn(CCn2ncnc2[N+](=O)[O-])n1,inactive: 1.95%
19,CC(C)(C)C(=O)NC(Sc1ccncn1)C(Cl)(Cl)Cl (stereo unspecified),inactive: 16.6%
20,O=C(Nc1cc([As](=O)(O)O)ccc1O)c1ccccc1,inactive: 11.2%
